Source: paper PMC10404700, “A new member of the flavodoxin superfamily from Fusobacterium nucleatum that functions in heme trafficking and reduction of anaerobilin” (The Journal of Biological Chemistry, 2023)

Chains of the proteins cited; added tags and fusions are not shown.
UniProt Q8RFD5, entry or part of it: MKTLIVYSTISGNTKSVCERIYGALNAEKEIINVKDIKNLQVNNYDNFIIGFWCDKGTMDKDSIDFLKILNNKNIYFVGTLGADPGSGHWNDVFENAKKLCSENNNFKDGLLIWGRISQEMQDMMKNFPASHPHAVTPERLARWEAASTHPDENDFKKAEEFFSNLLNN

Biological target: T1, HmuF (Fusobacterium nucleatum, UniProt Q8RFD5)
T1 construct: gene C7Y58_06900
Test: biochemical

C=CC1=C(C)C2=Cc3c(C=C)c(C)c4[n]3[Fe]([Cl])[n]3c(c(C)c(CCC(=O)O)c3=CC3=NC(=C4)C(C)=C3CCC(=O)O)=CC1=N2 [Fe^3+-hemin]
Kd: 9.1 ± 4.7 nM
